The target in experiment [1] is T1, Acetylcholinesterase (Rattus norvegicus) (UniProt P37136).
T1 sequence (whole entry): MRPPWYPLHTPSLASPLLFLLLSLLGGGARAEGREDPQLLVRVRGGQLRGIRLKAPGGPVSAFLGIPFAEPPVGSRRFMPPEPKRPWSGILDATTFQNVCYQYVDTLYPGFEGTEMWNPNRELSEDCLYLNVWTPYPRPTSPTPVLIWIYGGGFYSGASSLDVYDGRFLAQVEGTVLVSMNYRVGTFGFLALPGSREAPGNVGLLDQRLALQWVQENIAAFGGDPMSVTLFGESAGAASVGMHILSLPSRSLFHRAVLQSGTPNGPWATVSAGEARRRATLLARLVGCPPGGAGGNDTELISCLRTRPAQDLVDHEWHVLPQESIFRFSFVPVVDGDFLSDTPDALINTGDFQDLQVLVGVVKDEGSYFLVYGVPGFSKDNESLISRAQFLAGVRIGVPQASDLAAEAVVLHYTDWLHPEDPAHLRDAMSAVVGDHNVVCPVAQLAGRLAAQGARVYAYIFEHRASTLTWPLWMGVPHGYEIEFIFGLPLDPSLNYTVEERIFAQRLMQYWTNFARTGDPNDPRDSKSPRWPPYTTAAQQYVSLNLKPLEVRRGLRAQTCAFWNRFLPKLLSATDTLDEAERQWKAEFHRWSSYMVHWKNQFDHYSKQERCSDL
In words: Reactivation of 10 uM paraoxon inhibited AChE in rat brain homogenate. Set-up: scale not given: the % may be the effect or the level left.

The target of experiment [2] is T1, Acetylcholinesterase (Rattus norvegicus). As to the kind of experiment: Reactivation of 1000 uM paraoxon inhibited AChE in rat brain homogenate. Set-up: scale not given: the % may be the effect or the level left.

Our source for the Activity values is ChEMBL document CHEMBL1156721, “Monoquaternary pyridinium salts with modified side chain-synthesis and evaluation on model of tabun- and paraoxon-inhibited acetylcholinesterase” (2008).

SMILES strings stand for the structures.

As for `C=CC[n+]1ccccc1/C=N/O`, the Activity is 0% in experiment [1] and 38% in experiment [2]. `NC(=O)c1cc[n+](COC[n+]2ccccc2/C=N/O)cc1`: the Activity in experiment [1] came out at 0%.

In the case of `CCC[n+]1ccc(/C=N/O)cc1`, the Activity in experiment [1] was 0%; in experiment [2] it was 22%.

Turning to `C=CC[n+]1ccc(/C=N/O)cc1`, the Activity in experiment [1] was 0%; in experiment [2], 12%. Regarding `O/N=C/c1cccc[n+]1Cc1ccccc1`, the Activity in experiment [1] and in experiment [2] was 0% in each case. For `O/N=C/c1ccc[n+](Cc2ccccc2)c1`, the Activity in experiment [1] and in experiment [2] was 0% throughout.

For the compound `O/N=C/c1cc[n+](C[n+]2ccc(/C=N/O)cc2)cc1`, the Activity worked out at 0% in experiment [1] and 71% in experiment [2]. In the same order, the values of `CCC[n+]1cccc(/C=N/O)c1` are 0% and 0%. The like results for `O/N=C/c1cccc[n+]1CCc1ccccc1` were, in that order, 9% and 16%.

As to `C=CC[n+]1cccc(/C=N/O)c1`, the Activity in experiment [1] and in experiment [2] was 0% each time. Turning to `O/N=C/c1cccc[n+]1CCCc1ccccc1`, the Activity in experiment [1] amounted to 5%; in experiment [2], 20%. `O/N=C/c1ccc[n+](CCCc2ccccc2)c1`: the values for the Activity in experiment [1] and in experiment [2] were 4% and 0%, respectively. In the case of `O/N=C/c1cc[n+](CCc2ccccc2)cc1`, the Activity was 0% in experiment [1] and 2% in experiment [2].

As to `O/N=C/c1cc[n+](CCCc2ccccc2)cc1`, the Activity came to 4% in experiment [1] and 7% in experiment [2]. In the same order, the values of `O/N=C/c1cc[n+](Cc2ccccc2)cc1` are 0% and 0%. In the same order, the values of `CCC[n+]1ccccc1/C=N/O` are 0% and 52%. With `O/N=C/c1ccc[n+](CCc2ccccc2)c1`, the figures for the Activity in experiment [1] and in experiment [2] were 3% and 7%, respectively.
